details: PBS, 37° C., dialysis cassette 10,000 MWCO; Leu-Gly-Gly adduct amount by 1H-NMR, exponential approximation

Row | Substance | degradation half-life (t1/2)
1 | mPEG (10k)-BzTA4-LGG [compound (39)] | 4.6 days
2 | mPEG (20k)-BzTA4-LGG [compound (38)] | 4.1 days
3 | mPEG (20k)-PhTA4 (4CB)-LGG [compound (40)] | 6.4 days
4 | mPEG (40k)-PhTA4 (4CB2MO)-LGG [compound (42)] | 5.1 days
5 | mPEG (40k)-PhTA4 (4CB)-LGG [compound (41)] | 6.2 days
